Data as given in ChEMBL document CHEMBL4052828, “Discovery of 4-((7H-Pyrrolo[2,3-d]pyrimidin-4-yl)amino)-N-(4-((4-methylpiperazin-1-yl)methyl)phenyl)-1H-pyrazole-3-carboxamide (FN-1501), an FLT3- and CDK-Kinase Inhibitor with Potentially High Efficiency against Acute Myelocytic Leukemia” (J Med Chem, 2018).

Protein sequences, listed by entry. Tags and fused reporters are not part of them. Lines headed by an entry give the natural chain unless they say otherwise; changes in a name come on top.
UniProt P78396: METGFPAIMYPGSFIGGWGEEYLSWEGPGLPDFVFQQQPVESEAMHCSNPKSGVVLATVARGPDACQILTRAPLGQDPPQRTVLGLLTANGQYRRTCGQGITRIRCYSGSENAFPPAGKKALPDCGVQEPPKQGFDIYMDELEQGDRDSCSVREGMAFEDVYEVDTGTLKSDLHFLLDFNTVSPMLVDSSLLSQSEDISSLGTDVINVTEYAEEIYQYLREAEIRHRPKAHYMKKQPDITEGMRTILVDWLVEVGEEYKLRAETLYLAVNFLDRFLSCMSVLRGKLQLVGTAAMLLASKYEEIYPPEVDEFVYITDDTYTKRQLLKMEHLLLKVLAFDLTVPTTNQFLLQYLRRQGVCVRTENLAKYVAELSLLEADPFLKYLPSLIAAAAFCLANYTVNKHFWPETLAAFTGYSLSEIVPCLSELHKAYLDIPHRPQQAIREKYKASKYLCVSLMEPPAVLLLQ
UniProt P36888, whole entry: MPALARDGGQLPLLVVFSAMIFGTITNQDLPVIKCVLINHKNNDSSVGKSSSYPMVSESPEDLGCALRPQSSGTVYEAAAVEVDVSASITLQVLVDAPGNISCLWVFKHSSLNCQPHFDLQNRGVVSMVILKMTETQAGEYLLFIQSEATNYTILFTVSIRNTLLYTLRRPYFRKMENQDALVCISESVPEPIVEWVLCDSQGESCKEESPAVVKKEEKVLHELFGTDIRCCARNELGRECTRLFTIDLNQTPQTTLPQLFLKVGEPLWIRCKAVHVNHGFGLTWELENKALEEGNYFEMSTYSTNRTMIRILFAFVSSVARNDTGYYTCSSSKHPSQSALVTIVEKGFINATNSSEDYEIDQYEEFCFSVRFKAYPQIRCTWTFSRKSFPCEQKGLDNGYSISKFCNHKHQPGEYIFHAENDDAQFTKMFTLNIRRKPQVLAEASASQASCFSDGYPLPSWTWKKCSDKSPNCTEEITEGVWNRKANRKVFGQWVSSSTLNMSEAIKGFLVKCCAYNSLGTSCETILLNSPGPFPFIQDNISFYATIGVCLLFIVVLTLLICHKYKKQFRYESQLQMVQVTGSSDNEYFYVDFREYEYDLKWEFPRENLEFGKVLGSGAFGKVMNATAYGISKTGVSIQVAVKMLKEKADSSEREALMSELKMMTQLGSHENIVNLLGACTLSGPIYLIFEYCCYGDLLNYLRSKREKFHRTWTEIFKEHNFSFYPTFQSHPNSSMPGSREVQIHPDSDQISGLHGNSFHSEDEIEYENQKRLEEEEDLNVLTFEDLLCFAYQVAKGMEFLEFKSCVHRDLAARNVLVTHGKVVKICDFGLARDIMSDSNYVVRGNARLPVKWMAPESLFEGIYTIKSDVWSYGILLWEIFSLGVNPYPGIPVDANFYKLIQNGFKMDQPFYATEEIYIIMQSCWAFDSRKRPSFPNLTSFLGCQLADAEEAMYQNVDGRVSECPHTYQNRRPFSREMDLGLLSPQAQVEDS

Key:
[1] = target: CDK2/Cyclin A1 (Homo sapiens) (UniProt P24941+P78396); assay: Potency index, ratio of AT7519 IC50 to test compound IC50 for human CDK2/Cyclin A1; type: protein-complex assay
[2] = target: Receptor-type tyrosine-protein kinase FLT3 (Homo sapiens, UniProt P36888); assay: Potency index, ratio of sorafenib IC50 to test compound IC50 for human FLT3

Ratio IC50 [1]: 10
Ratio IC50 [2]: 10
Compound: O=C(Nc1ccc(CN2CCOCC2)cc1)c1n[nH]cc1Nc1ncnc2ccccc12
